The subject of this experiment is IgM in human heart biopsies. As to the kind of experiment: Displacement (elution) of IgM from human heart transplant biopsies. As to conditions: for vascular IgM in biopsy after incubation (immunohistochemistry): displacement experiments. In kind it is binding. As to the method: This IgM biopsy removal was also confirmed immunohistochemically (FIG. 12).
Serum IgM anti-PC NAbs was evaluated using ELISA (ADI, San Antonio, Tex.). To confirm that IgM within the heart microvessels is directed to PC, the antibodies were eluted from the heart tissue samples and measured the eluates in specific ELISAs (ADI, San Antonio, Tex.). The presence of increased inflammation was determined immunohistochemically with antibodies to CRP and ICAM-1. Reduced thrombosis was identified using antibodies to fibrin, antithrombin, and tissue plasminogen activator. MΦ phenotypes were also assessed with 4-color immunohistochemistry and M1 and M2 MΦs characterized with antibodies to TNF/IL-1/CCR2/IL-12/23 and CD163/IL-10/CD206, respectively.
IgM from heart biopsies was removed using PC (50 mM), CRP (2.58 mg/ml) or albumin (1 mg/ml) concentrations proven to be effective in preliminary studies (see FIG. 11). To verify if the IgM removed from the heart biopsies is PC-specific, ELISA was performed.
One hundred and seventy-two (172) adult heart transplant patients (having a number of serial biopsies per patient in first three months post-transplant) were followed for several years and subsequently analyzed. CAV was diagnosed with serial angiographies for each patient. The percentage of microvascular IgM was quantified with double staining (IgM/CD31 or Ulex europaeus lectin). IgM and IgM anti-phosphorylcholine (PC) from biopsy eluates were determined with immunoblotting and enzyme-linked immunosorbent assays (ELISAs). Statistical analyses used univariate logistic regression, multivariate stepwise models, and Kaplan-Meier curves for different tertile groups.

Turning to “human albumin: control protein in IgM displacement experiments”, the “vascular IgM in biopsy after incubation (immunohistochemistry)” value was “presence of vascular IgM”. Where the note is “PC 50 mM, CRP 2.58 mg/ml, albumin 1 mg/ml”, the “removal of IgM from heart biopsies by incubation” value is recorded as “not”. Moreover, under “listed as albumin”, the “vascular IgM in biopsy after incubation (immunohistochemistry)” value is “not”. Under “eluates after incubation of biopsies”, the “IgM anti-PC in biopsy eluates (ELISA)” value is on record as 0.0±0.0 U/ml. Also, the “IgM in western blots of biopsy eluates” value (following incubation of biopsies) is “not”.

These data come from patent US11065319B2, “Methods for diagnosing and reducing incidences of cardiac allograft rejection” (3DT Holdings, LLC, priority 2014, dated 2021).
